Amino acid sequences for entries named in this document (tags omitted).
UniProt P35367, whole entry: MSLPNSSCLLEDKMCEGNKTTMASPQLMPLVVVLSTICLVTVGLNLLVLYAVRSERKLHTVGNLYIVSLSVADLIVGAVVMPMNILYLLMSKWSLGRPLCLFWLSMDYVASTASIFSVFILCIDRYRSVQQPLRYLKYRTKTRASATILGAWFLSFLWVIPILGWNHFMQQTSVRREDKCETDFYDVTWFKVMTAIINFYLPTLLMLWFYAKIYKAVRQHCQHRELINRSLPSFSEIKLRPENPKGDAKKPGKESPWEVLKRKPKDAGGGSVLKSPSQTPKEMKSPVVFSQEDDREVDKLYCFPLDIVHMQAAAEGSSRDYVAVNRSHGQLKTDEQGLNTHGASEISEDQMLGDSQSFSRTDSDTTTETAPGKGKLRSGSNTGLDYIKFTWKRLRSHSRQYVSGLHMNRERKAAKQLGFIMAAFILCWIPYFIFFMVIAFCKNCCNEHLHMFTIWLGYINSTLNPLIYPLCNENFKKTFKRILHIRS
UniProt P08172, whole entry: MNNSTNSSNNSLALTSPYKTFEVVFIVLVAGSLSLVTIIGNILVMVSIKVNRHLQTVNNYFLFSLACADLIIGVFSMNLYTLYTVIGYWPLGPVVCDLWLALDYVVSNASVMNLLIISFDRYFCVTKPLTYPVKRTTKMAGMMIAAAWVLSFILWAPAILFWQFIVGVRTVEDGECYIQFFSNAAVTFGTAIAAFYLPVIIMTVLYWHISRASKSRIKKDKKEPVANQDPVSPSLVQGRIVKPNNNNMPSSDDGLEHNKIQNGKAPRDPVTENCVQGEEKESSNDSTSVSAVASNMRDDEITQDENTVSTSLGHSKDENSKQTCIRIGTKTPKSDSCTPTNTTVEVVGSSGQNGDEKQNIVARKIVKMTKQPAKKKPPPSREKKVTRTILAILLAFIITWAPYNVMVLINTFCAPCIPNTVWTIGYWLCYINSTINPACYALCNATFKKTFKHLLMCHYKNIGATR
UniProt Q01827, whole entry: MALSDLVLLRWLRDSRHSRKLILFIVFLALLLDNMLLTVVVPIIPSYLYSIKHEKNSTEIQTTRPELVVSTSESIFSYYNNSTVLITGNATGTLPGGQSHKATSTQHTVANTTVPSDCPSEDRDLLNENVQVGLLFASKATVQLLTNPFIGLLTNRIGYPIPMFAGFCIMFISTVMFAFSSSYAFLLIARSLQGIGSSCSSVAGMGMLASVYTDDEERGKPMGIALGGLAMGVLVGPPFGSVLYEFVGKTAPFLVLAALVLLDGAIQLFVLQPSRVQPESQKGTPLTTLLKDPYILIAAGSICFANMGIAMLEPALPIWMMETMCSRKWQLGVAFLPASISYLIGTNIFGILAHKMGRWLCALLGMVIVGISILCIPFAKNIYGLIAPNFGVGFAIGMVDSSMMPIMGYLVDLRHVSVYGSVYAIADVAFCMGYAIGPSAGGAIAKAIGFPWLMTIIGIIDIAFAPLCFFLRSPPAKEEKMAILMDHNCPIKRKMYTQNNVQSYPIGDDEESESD

In ChEMBL document CHEMBL5291721, “A preclinical secondary pharmacology resource illuminates target-adverse drug reaction associations of marketed drugs” (Nat Commun, 2023):

Legend:
[1] = biological target: Histamine H1 receptor (Homo sapiens, UniProt P35367)
[2] = biological target: T1, Muscarinic acetylcholine receptor M2 (Homo sapiens, UniProt P08172); assay type: functional, cell-based
[3] = biological target: T1, Muscarinic acetylcholine receptor M2
[4] = biological target: Synaptic vesicular amine transporter (Rattus norvegicus, UniProt Q01827); assay type: functional
Note: assay procedure not described here.

## Cc1ccc(/C(=C\CN2CCCC2)c2cccc(/C=C/C(=O)O)n2)cc1 [ACRIVASTINE]
[1]
  AC50: 170 nM

## CN1[C@@H]2C[C@@H](OC(=O)[C@H](CO)c3ccccc3)C[C@H]1[C@@H]1O[C@@H]12 [SCOPOLAMINE]
[2]
  AC50: > 30000 nM
[3]
  AC50: 0.7 nM

## COc1cc2c(cc1OC)C1CC(=O)C(CC(C)C)CN1CC2 (centres undefined) [TETRABENAZINE]
[4]
  AC50: 7 nM
